Assay results reported in PubChem BioAssay AID2517 (National Center for Advancing Translational Sciences (NCATS), 2010).
Only a part is listed here, and it is no random draw. Results filed as inconclusive are left out. Some salts or complexes appear as unconnected parts, following the source record. Activity calls are given as the source filed them. Calls follow the shape of the dose curve; as a rule, active = well fitted inhibition curve with a large enough effect; inconclusive = small, poorly fitted or top-dose-only effect; inactive = no such curve, though single readings can be large or run the other way.

Amino acid sequences for entries named in this document (tags omitted).
UniProt P27695, whole entry: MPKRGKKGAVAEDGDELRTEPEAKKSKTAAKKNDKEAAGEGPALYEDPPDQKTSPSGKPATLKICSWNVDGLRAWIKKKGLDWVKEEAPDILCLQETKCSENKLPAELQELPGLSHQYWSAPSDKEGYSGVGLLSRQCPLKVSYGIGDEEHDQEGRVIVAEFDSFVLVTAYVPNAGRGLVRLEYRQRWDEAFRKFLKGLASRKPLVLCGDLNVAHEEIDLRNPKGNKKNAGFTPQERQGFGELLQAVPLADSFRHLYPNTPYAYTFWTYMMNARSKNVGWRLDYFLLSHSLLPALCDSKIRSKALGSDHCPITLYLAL

molecular target: DNA repair nuclease/redox regulator APEX1 (Homo sapiens) (UniProt P27695); assay: qHTS Assay for Inhibitors of the Human Apurinic/apyrimidinic Endonuclease 1 (APE1); settings: recombinant APE1, TAMRA/BHQ-2 abasic DNA cleavage fluorescence; at 65.8 µM (top of the series) unless noted;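 also: plate controls were vehicle for no effect and reference inhibitor for full effect; nearly all actives have a fitted effect of over 55% in size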

SMILES | activity change, negative = inhibition
COc1cc(C(=O)NCC2(N(C)C)CCCCC2)ccc1OC(F)F | inactive: 27.9%
CCOC(=O)N1CCC(Nc2cccc(C)c2)CC1 | inactive: 16.5%
Cc1ccc(OCC(C)C)c(CN(CCCl)CCCl)c1 | inactive: 9.96%
CCOc1ccc(C)cc1CN(CCCl)CCCl | inactive: 21%
O=C(NCC1(N2CCCCC2)CCCCC1)c1ccc(F)cc1 | inactive: 8.1% [at 12.4 µM]
CCCCOc1ccc(C(=O)NCC2(N3CCOCC3)CCCCC2)cc1 | inactive: -2.52%
COc1ccc(NC2CCN(CCc3ccccc3)CC2)c(OC)c1 | inactive: 8.59%
CCOC(=O)N1CCC(Nc2ccc(F)cc2)CC1 | inactive: 7.12%
O=C(NCC1(N2CCOCC2)CCCCC1)c1cc2ccccc2o1 | inactive: -2.14%
O=C(NCC1(N2CCCCC2)CCCCC1)c1ccc(Cl)nc1 | inactive: 32.1%
Cc1cc(C)cc(N(C(=O)c2ccccc2)C2CCN(C(=O)OC(C)(C)C)CC2)c1 | inactive: 11.8%
CCOC(=O)N1CCC(Nc2ccc(OC)cc2)CC1 | inactive: 1.28%
O=C(OC1CN2CCC1CC2)C1c2ccccc2Oc2ccccc21 (stereo unspecified) | inactive: -4.5%
N#CC1(Nc2ccccc2)CCN(Cc2ccccc2)CC1 | inactive: -3.58%
O=C(NCC1(N2CCCCC2)CCCCC1)c1ccc(Cl)s1 | inactive: 1.8%
COc1ccc(Cl)cc1C(=O)NCC1(N2CCOCC2)CCCCC1 | inactive: -23.4%
O=C(NCC1(N2CCCCC2)CCCCC1)c1ccc(=O)[nH]c1 | inactive: 28.4%
O=C(NCC1(N2CCCCC2)CCCCC1)c1cccs1 | inactive: 16.6%
COc1ccc(C(=O)NCC2(N3CCCCC3)CCCCC2)cc1 | inactive: 39.9%
COc1ccc(C(=O)NCC2(N3CCCCC3)CCCCC2)c(OC)c1OC | inactive: 8.59%
CC(C)(C)OC(=O)N1CCC(N(C(=O)c2ccccc2)c2ccc(F)cc2)CC1 | inactive: -6.87%
CSc1ccccc1C(=O)NCC1(N2CCCCC2)CCCCC1 | inactive: 28% [at 12.4 µM]
O=C(NCC1(N2CCCCC2)CCCCC1)c1cncc(Br)c1 | inactive: 16.3%
COc1ccc2c(c1O)-c1c(O)c(OC)cc3c1[C@H](C2)[N+](C)(C)CC3.O=[N+]([O-])c1cc([N+](=O)[O-])c([O-])c([N+](=O)[O-])c1[O-] | inactive: -4.24%
O=C(OC1CN2CCC1CC2)c1ccc([N+](=O)[O-])cc1 (stereo unspecified) | inactive: 8.43%
CCCOc1ccc(C(=O)NCC2(N(C)C)CCCCC2)cc1OC | inactive: 32.2%

SMILES | activity change, negative = inhibition
COc1ccc(CN(CCCl)CCCl)cc1Cl | inactive: 6.78%
O=[N+]([O-])c1cc([N+](=O)[O-])c(OC2CCCCC2O)c([N+](=O)[O-])c1 (stereo unspecified) | inactive: 15.3%
CN(C)c1cccc(C(=O)NCC2(N3CCCCC3)CCCCC2)c1 | inactive: -5.54%
CC(C)c1ccc(NC2CCN(C(=O)OC(C)(C)C)CC2)cc1 | inactive: -1.83%
COc1cc(OC)c(C(=O)NCC2(N(C)C)CCCCC2)cc1OC | inactive: 0.768%
O=C(NCC1(N2CCOCC2)CCCCC1)c1cc(F)c(F)cc1Cl | inactive: -9.22%
CCOP(=O)(Cl)Cl | inactive: -0.0404%
O=C(NCC1(N2CCCCC2)CCCCC1)c1cccc(C(F)(F)F)c1 | inactive: 25%
O=[N+]([O-])c1cc([N+](=O)[O-])c(NCC2CCS(=O)(=O)C2)c([N+](=O)[O-])c1 (stereo unspecified) | inactive: -3.75%
CN1CCN(CCOC(=O)C(O)(c2ccccc2)c2ccccc2)CC1 | inactive: 4.05%
COc1ccc(NC2CCN(C(=O)OC(C)(C)C)CC2)cc1 | inactive: -5.95%
CC(C)c1ccc(C(=O)NCC2(N3CCOCC3)CCCCC2)cc1 | inactive: 1.13%
COc1cc(C(=O)NCC2(N3CCCCC3)CCCCC2)ccc1OC(F)F | inactive: 21.5%
O=C(NCC1(N2CCOCC2)CCCCC1)c1cc(=O)[nH]c2ccccc12 | inactive: 10.7%
O=C(NCC1(N2CCCCC2)CCCCC1)c1ccc(OC(F)F)cc1 | inactive: -10.4%
CSc1ccc(C(=O)NCC2(N3CCOCC3)CCCCC2)cc1 | inactive: 3.96%
O=C(NCC1(N2CCCCC2)CCCCC1)c1cccc([N+](=O)[O-])c1 | inactive: -0.287%
CCN1CCC(Nc2ccc(Cl)cc2)CC1 | inactive: 12.7%
N#CC1(Nc2ccccc2)CCN(CCc2ccccc2)CC1 | inactive: -2.05%
c1ccc(CN2CCC(Nc3ccccc3)CC2)cc1 | inactive: 1.39%
CCCN1CCC(Nc2cc(OC)cc(OC)c2)CC1 | inactive: 7.28%
ClCCOP(OCCCl)OCCCl | inactive: 3.66%
CN(C)C1(CNC(=O)c2cccc(C#N)c2)CCCCC1 | inactive: 6.56%
CC(C)(C)OC(=O)N1CCC(N(C(=O)c2ccccc2)c2ccc(Cl)cc2)CC1 | inactive: 8.09%
N#Cc1ccc(C(=O)NCC2(N3CCCCC3)CCCCC2)cc1 | inactive: 16.4%
CCOC(=O)C(CC)C1=NC(C)(C)Cc2ccccc21.O=[N+]([O-])c1cc([N+](=O)[O-])c(O)c([N+](=O)[O-])c1 (stereo unspecified) | inactive: 0.385%

SMILES | activity change, negative = inhibition
N/C(=N\O)c1c(N)no[n+]1[O-] | inactive: -1.8%
CCOC(=O)N1CCC(Nc2ccc(C)cc2)CC1 | inactive: -6.14%
O=C(OC1CN2CCC1CC2)C1c2ccccc2C=Cc2ccccc21 (stereo unspecified) | inactive: 9.17%
CCc1cc(C(=O)NCC2(N3CCCCC3)CCCCC2)sc1C | inactive: 19.1%
O=C(O)c1cccc(Nc2c([N+](=O)[O-])cc([N+](=O)[O-])cc2[N+](=O)[O-])c1 | inactive: 3.45%
O=C(NCC1(N2CCOCC2)CCCCC1)c1cc(Br)ccc1Cl | inactive: -9.25%
COc1cc(C(=O)NCC2(N3CCOCC3)CCCCC2)cc(OC)c1C | inactive: -0.248%
COc1ccc(C(=O)NCC2(N3CCOCC3)CCCCC2)cc1OC | inactive: -4.64%
CCC(CO)(C(=O)OC1CN2CCC1CC2)c1ccccc1 (stereo unspecified) | inactive: 6.54%
COc1cc(OC)cc(C(=O)NCC2(N3CCOCC3)CCCCC2)c1 | inactive: -1.18%
COc1cccc(C(=O)N(c2cc(C)cc(C)c2)C2CCN(C(=O)OC(C)(C)C)CC2)c1 | inactive: -24.1%
CCCOc1ccc(C)cc1CN(CCCl)CCCl | inactive: 15.3%
CN1CCC(Nc2ccc(Cl)cc2)CC1 | inactive: 14.2%
CCOc1ncccc1C(=O)NCC1(N2CCOCC2)CCCCC1 | inactive: -2.63%
CN1CCC(Nc2ccc(F)c(Cl)c2)CC1 | inactive: -11.7%
CCCOc1ccc(C(=O)NCC2(N(C)C)CCCCC2)cc1 | inactive: 50.9%
CC(C)(C)OC(=O)N1CCC(Nc2ccccc2)CC1 | inactive: -0.715%
O=C(O)C1(Nc2ccccc2)CCN(Cc2ccccc2)CC1 | inactive: 1.67%
CCN1CCC(Nc2cccc(F)c2)CC1 | inactive: 0.462%
O=C(NCC1(N2CCCCC2)CCCCC1)c1ccco1 | inactive: -0.561%
CN(C)c1ccc(C(=O)NCC2(N3CCCCC3)CCCCC2)cc1 | inactive: 3.08%
COc1cc(OC)cc(C(=O)NCC2(N3CCCCC3)CCCCC2)c1 | inactive: 60.8%
Cc1ccc(C(=O)NCC2(N3CCCCC3)CCCCC2)o1 | inactive: 18.1%
Fc1ccccc1NC1CCN(Cc2ccccc2)CC1 | inactive: 0.587%
